Results taken from publication PMC7897990, “TriTOX: A novel Trichomonas vaginalis assay platform for high-throughput screening of compound libraries” (International Journal for Parasitology: Drugs and Drug …, 2021).

Columns and labels:
[1] = tested on: Trichomonas vaginalis G3 trophozoites; conditions: HTS, parasite screen at 1 µg/mL, replicate 2, raw absorbance
[2] = tested on: nontumorigenic neonatal foreskin fibroblast (NFF) cell line

| SMILES | T.vaginalis_Absorbance_Rep2 [1] | NFF_Activity [2] |
| --- | --- | --- |
| C[C@@H](O)[C@H]1C(=O)N2C(C(=O)O)=C(S[C@@H]3CN[C@H](CNS(N)(=O)=O)C3)[C@H](C)[C@H]12 [Doripenem] | 0.835 | – |
| O=C(O)c1cccc(C(=O)O)n1 [Dipicolinic acid] | – | I (key: active (A) compounds having >25% inhibitory activity; otherwise these were reported as inactive (I)) |
